Here are results for one compound from ChEMBL document CHEMBL2384950, “2-(3-Fluoro-4-methylsulfonylaminophenyl)propanamides as potent TRPV1 antagonists: structure activity relationships of the 2-oxy pyridine C-region” (Eur J Med Chem, 2013).

Sequences of proteins named here, by UniProt entry; tags and fusion partners are left off.
UniProt Q8NER1, whole entry: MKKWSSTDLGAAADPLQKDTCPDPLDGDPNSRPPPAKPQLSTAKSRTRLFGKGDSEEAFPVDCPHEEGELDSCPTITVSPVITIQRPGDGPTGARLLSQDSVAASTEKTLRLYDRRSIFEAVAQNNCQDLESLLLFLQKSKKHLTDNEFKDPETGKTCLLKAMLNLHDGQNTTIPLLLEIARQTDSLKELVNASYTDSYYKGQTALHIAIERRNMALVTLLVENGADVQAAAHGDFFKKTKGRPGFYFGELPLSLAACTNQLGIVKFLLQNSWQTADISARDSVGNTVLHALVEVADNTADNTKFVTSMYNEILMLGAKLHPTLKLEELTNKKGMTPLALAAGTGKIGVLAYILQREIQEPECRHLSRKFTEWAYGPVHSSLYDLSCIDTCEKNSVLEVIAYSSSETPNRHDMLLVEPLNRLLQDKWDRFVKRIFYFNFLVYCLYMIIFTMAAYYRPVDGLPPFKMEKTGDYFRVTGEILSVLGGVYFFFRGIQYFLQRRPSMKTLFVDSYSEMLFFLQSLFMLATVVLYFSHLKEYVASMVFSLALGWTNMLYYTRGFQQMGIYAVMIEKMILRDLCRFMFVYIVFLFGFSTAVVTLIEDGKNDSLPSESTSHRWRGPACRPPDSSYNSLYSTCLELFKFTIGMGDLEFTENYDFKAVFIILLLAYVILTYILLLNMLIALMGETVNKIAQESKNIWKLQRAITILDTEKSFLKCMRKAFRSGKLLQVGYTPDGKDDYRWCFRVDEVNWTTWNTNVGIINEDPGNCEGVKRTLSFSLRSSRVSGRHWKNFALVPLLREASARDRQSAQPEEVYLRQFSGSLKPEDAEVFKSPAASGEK

The target of the assay is Transient receptor potential cation channel subfamily V member 1 (Homo sapiens, UniProt Q8NER1). Kind of assay: Antagonist activity at human TRPV1 expressed in CHOK1 cells assessed as inhibition of pH 6 to 6.3-induced activity by FLIPR assay. Type of assay: cell-based, CHO-K1.

SMILES strings stand for the structures.

A word on the IC50: it is the concentration needed to halve the response being measured.

In the case of `CCCCOc1nc(C(F)(F)F)ccc1CNC(=O)C(C)c1ccc(NS(C)(=O)=O)c(F)c1` (stereo unspecified), the IC50 came out at 30.5 nM.
